Source: patent US5973188A (priority 1993, dated 1999)

Test system: ADP-induced aggregation of platelets in human PRP
Conditions: oral administration to mice; mouse plasma (1 part) mixed with human PRP (3 parts); extrapolated from plasma volume IC50

## CCOC(=O)COc1ccc(C(=O)[C@H](C)NC(=O)c2ccc(C(=N)NP(=O)(OCC)OCC)cc2)cc1
  ID50 (dose administered orally that inhibits by 50% the ADP-induced ex vivo aggregation of platelets in human PRP): 3.9 mg/kg
